Ab-14 heavy chain CDR variants: yeast mating affinities

The measurements come from Li et al. 2023 (doi:10.1038/s41467-023-39022-2) through the FLAb antibody collection.

Target peptide (SARS-CoV-2 spike, HR2 region): PDVDLGDISGINAS

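Phage display of a naive human antibody library on the peptide gave the parent. Designed CDR sequences, proposed from the first random library and measured here. Group labels follow the data file (Ctrl: baseline library sampled from a position-specific scoring matrix, with some repeated check sequences; Rand: our label for a block that the file lists under HC and that is probably the random mutants of the ten best first-round binders; GP: Gaussian process model; GPLM: also part of the Gaussian process libraries; HC: hill climbing; Gen: genetic algorithm; Gibbs: Gibbs sampling; a sequence that several methods proposed may carry one label only). The scFvs were displayed on barcoded MATa yeast, the peptide on MATalpha yeast. Mating (16 h, 30 °C) was followed by selection of diploids and sequencing of their barcodes. Each replicate has its own calibration line, from reference interactions of the BCL2 family. Mating was done six times.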

Parent scFv Ab-14: VH joined to VL by the linker GGGGSGGGGSGGGGS. Changes lie in the heavy chain CDRs alone.
VH: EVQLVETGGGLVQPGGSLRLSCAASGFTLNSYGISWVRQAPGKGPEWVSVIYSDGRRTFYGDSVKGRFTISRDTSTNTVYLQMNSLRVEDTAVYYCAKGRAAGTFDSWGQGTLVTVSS
VL: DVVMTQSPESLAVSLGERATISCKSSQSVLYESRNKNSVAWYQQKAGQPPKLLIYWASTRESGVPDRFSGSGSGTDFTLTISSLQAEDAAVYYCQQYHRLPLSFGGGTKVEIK

Substitutions are numbered in sequence along the VH above, starting at 1 (not Kabat).
Variants here have at most six changes.
Values are log10 of the apparent Kd in nM; lower means stronger binding.
"nd" means that the variant was in the library but no mating with the target was seen in that replicate; the authors take this as a sign of poor binding, and no number exists.
Nonspecific signal, from three strains lacking the peptide, appeared in 1% of pairings of all heavy chain designs, centred on 2.08 (5% of these signals below 0.84); values are not corrected for it. For each scFv, signals with the empty controls are counted beside the result.
The parent sequence was in this pool as ten entries: three were never detected, three once, and four in most replicates, with averages from 0.34 to 2.37.
The authors averaged sequences with at least three values out of six and counted those with two or fewer as poor binders.
The range of this assay differs from that of the first round, and the authors advise against merging the two.

S31E/G61S/G103V/S107Q [GPLM_HC]: nd, nd, nd, nd, nd, nd (controls 1 of 18).
T28S/G61A/S63R/R100E/S107T [GP_Gibbs]: 0.15, 0.39, nd, 0.93, 0.38, 0.62 (controls 0 of 18).
G61S/A102V [Rand]: nd, 2.12, nd, nd, nd, nd (controls 0 of 18).
S31E/G61T/S63R/A101F [GPLM_HC]: nd, 0.88, 1.00, nd, 0.19, nd (controls 0 of 18).
T28N/A101T/S107Q [GP_Gen]: 1.02, 1.31, 0.94, 0.82, 0.87, 0.76 (controls 1 of 18).
G61A/R100K/S107T [GPLM_Gibbs]: 1.45, 1.49, 1.07, 1.25, 0.75, 1.11 (controls 1 of 18).
T28D/S63D/T104H/D106N [GP_HC]: nd, nd, nd, nd, nd, nd (controls 0 of 18).
T28S/G61K/R100Q/A101E [GPLM_Gen]: 0.59, -0.18, 0.09, -0.01, 0.13, 0.31 (controls 0 of 18).
T28A/G61D/R100Q [GP_HC]: 1.40, 1.73, 1.61, nd, 1.85, 1.20 (controls 0 of 18).
S31E/G61S/A102G [GPLM_HC]: 0.19, -0.10, 0.36, 0.67, 0.39, 0.37 (controls 0 of 18).
T28S/S31E/S53A/R100N [GP_HC]: -0.37, -0.58, -0.31, -0.93, -0.52, -0.56 (controls 0 of 18).
S31Q/Y32S/T58G/G61S/T104F [Rand]: nd, nd, nd, nd, nd, nd (controls 0 of 18).
V64F [Ctrl]: nd, 3.77, 1.66, 3.10, 2.66, nd (controls 0 of 18).
S31D/A101Q/S107I [GPLM_HC]: 1.42, 2.09, 0.84, 0.91, 1.46, 1.84 (controls 0 of 18).
S31E/G61S/T104C/D106T [GP_HC]: 0.65, 0.50, 0.68, 1.82, 0.58, 0.99 (controls 1 of 18).
K65R/D106S [Ctrl]: nd, nd, 1.79, nd, nd, nd (controls 0 of 18).
T28E/S31A/G61A/R100K/A101T [GP_Gibbs]: 1.47, 1.27, 2.07, 1.29, 1.19, 0.66 (controls 1 of 18).
T28V/S53A/S63Q/A101T [GP_Gibbs]: 0.77, 0.56, nd, nd, 0.81, nd (controls 0 of 18).
S31E/R100Q/S107E [GP_HC]: 1.17, 0.92, 0.53, 0.21, 1.21, 1.52 (controls 1 of 18).
T28V/S63D/R100Q/A102Y [Ctrl]: nd, nd, nd, nd, nd, nd (controls 0 of 18).
S31Q/F59Q/G61S/T104F [Rand]: nd, nd, nd, nd, nd, nd (controls 0 of 18).
S31Q/R56K/G61I [GPLM_HC]: nd, 1.46, nd, nd, -0.35, nd (controls 0 of 18).
L29P/K65D/A101G [Ctrl]: nd, nd, nd, nd, nd, nd (controls 0 of 18).
T28S/S31E/D62W/S63Q/A101T [GP_Gen]: nd, nd, nd, nd, nd, nd (controls 0 of 18).
L29P/S63K/R100G/A102Y/D106F [Ctrl]: nd, 0.99, nd, nd, nd, nd (controls 0 of 18).
G61M/G99D/D106K [Ctrl]: nd, nd, nd, nd, 1.57, nd (controls 0 of 18).
G61D/R100E/A101Q/S107H [Ctrl]: 0.93, 0.68, 0.65, 0.91, 0.86, 1.28 (controls 2 of 18).
T28E/R100M/A101N/S107T [GPLM_Gibbs]: 0.58, 0.50, 0.48, 0.38, 0.28, 0.57 (controls 1 of 18).
S63N/A101L [Ctrl]: nd, nd, 2.12, 0.87, 2.82, 1.39 (controls 0 of 18).
Y32D/S53A/Y60G/F105N/D106K [Rand]: nd, nd, nd, nd, nd, nd (controls 0 of 18).
G33H/Y52L/S53A/R100G/F105N/D106K [Rand]: nd, nd, nd, nd, nd, nd (controls 0 of 18).
G26P/T28D/G99N/G103F/T104W/D106N [Rand]: nd, nd, nd, nd, nd, nd (controls 0 of 18).
T28D/S31E/R100D/S107Q [Ctrl]: 0.37, 0.16, 0.20, -0.25, -0.25, 0.53 (controls 1 of 18).
T28N/G61A/S63Q/R100Q/A101T [GP_Gen]: 0.30, 0.42, 0.19, 0.31, 0.31, 0.11 (controls 0 of 18).
G26K/S53A/A101T [GP_Gen]: 0.18, nd, 0.22, nd, -0.25, 1.30 (controls 0 of 18).
T28S/G61C/R100M/A101L [GP_HC]: 2.15, 1.69, 1.64, 1.07, nd, 2.42 (controls 1 of 18).
T28S/G61D/S63D/A101T [GP_Gen]: 0.83, 0.09, 0.39, 0.24, 0.51, 0.80 (controls 1 of 18).
T28S/N30G/S31E/I34C/K65R [Ctrl]: nd, 2.51, 1.64, nd, nd, 1.63 (controls 0 of 18).
A101L/D106K [Ctrl]: nd, nd, nd, nd, nd, nd (controls 0 of 18).
S53A/S107Q [GPLM_Gen]: 0.19, 0.52, 0.26, -0.20, -0.02, 0.36 (controls 0 of 18).
L29I/G61S/G103Y/D106L [Ctrl]: nd, 1.87, nd, 2.84, nd, 1.25 (controls 0 of 18).